The target of test [1] is Substance-P receptor (Cavia porcellus) (UniProt P30547). Put plainly: In vivo efficacy expressed as dose ratio for bronchoconstriction induced by ASMSP as agonist for NK1 receptor in anesthetized guinea pig. It is filed as functional, organism-based.
The target in test [2] is Substance-K receptor (Cavia porcellus) (UniProt Q64077). Briefly: In vivo efficacy expressed as dose ratio for bronchoconstriction induced by BANK as agonist for NK2 receptor in anesthetized guinea pig at 30 uM/kg dose by oral administration. It is filed as functional, organism-based.

Protein sequences, listed by entry. Tags and fused reporters are not part of them.
UniProt P30547, whole entry: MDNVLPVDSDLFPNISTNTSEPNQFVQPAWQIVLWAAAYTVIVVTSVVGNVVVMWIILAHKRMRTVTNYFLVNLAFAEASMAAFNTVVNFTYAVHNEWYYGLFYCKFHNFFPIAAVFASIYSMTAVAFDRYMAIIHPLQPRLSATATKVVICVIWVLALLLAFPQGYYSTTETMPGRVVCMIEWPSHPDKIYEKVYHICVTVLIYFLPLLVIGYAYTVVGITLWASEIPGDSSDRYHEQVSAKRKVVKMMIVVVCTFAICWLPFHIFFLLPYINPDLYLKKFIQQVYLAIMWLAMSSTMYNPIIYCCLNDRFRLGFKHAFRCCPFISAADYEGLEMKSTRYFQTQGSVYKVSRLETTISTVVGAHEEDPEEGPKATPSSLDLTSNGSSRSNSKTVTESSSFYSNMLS
UniProt Q64077, whole entry: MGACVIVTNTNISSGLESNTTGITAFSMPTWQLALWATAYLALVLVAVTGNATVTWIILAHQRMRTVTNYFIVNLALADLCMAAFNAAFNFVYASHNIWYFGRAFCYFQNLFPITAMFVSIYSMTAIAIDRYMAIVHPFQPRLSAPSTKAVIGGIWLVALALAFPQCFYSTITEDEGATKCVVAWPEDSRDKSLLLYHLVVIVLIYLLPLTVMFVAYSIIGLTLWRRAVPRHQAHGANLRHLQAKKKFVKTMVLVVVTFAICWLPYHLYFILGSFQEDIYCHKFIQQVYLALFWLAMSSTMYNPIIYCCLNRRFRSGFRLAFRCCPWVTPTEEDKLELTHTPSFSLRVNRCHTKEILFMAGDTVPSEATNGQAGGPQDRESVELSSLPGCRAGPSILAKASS

This is an account of results in ChEMBL document CHEMBL1133817, “Discovery of novel, orally active dual NK1/NK2 antagonists” (Bioorg Med Chem Lett, 2001).

`COc1cc(C(=O)N2CC[C@](CCN3CCC(C(N)=O)(c4ccccc4)CC3)(c3ccc(Cl)c(Cl)c3)C2)cc(OC)c1OC`: the Ratio in test [1] stood at 5; in test [2] it was 1.
In the case of `CN(C[C@@H](CCN1CCC(c2ccccc2[S@+](C)[O-])CC1)c1ccc(Cl)c(Cl)c1)C(=O)c1cc(C#N)cc2ccccc12` (stereo in doubt), the figures for the Ratio in test [1] and in test [2] were 23 and 18, respectively.
